Measured values from ChEMBL document CHEMBL2169842, “Structure-activity relationship in the antitumor activity of 6-, 8- or 6,8-substituted 3-benzylamino-β-carboline derivatives” (Bioorg Med Chem Lett, 2012).

Test: Selectivity ratio of IKK over CK2

SMILES: Clc1cc(Cl)c2[nH]c3cnccc3c2c1
- Ratio: > 20
